{
  "sequences": {"note": "By UniProt entry, the sequences of proteins in these tests, tags left out. Chains listed by the source or under a name are the forms on record and can include a tag or linker.", "UniProt Q02936, other isoform, or with tags, fused parts or gaps DEL89-254": "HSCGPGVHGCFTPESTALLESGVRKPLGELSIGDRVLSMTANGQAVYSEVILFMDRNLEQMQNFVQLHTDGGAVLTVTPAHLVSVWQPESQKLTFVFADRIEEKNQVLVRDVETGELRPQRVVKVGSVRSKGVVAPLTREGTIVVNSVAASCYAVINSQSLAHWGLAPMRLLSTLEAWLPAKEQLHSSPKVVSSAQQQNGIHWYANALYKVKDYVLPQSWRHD"},
  "source": "patent US8362216B2",
  "about": "“Method of detection using antibodies that specifically bind hedgehog-derived polypeptides” (The Johns Hopkins University School of Medicine, priority 1994, dated 2013)",
  "target": "His6Hh-C protein (Drosophila melanogaster, UniProt Q02936, DEL89-254)",
  "assay": "In vitro autocleavage reaction of bacterially expressed His6Hh-C protein (DTT / lipid stimulation)",
  "data": [
    {"molecule": "O[C@H](CS)[C@H](O)CS", "note": "(racemic) [dithiothreitol]", "values": [
      {"measurement": "In vitro cleavage of His6Hh-C", "setting": "1 mM dithiothreitol alone", "value": "no visible cleavage product"},
      {"measurement": "In vitro cleavage of His6Hh-C, completion", "setting": "50 mM DTT, three hours at 30° C.", "value": "greater than 50%"}
    ]}
  ]
}
